# Laboratory results taken from ChEMBL document CHEMBL4834497, “Spirocyclic Thiohydantoin Antagonists of F877L and Wild-Type Androgen Receptor for Castration-Resistant Prostate Cancer” (ACS Med Chem Lett, 2021).
# Assays:
# [1] = target: T1, Androgen receptor (Rattus norvegicus) (UniProt P15207); experiment: (§1) In vivo antagonist activity at AR in peripubertal castrated Sprague-Dawley rat assessed as inhibition of testosterone propionate-induced androgen-sensitive organ growth by measuring decrease in seminal vesicles and coagulating glands weight at 5 mg/kg, po QD for 10 days and measured 24 hrs post last dose by Hershberger's assay; assay type: functional, organism-based; settings: time 11.0 day
# T1 sequence (whole entry): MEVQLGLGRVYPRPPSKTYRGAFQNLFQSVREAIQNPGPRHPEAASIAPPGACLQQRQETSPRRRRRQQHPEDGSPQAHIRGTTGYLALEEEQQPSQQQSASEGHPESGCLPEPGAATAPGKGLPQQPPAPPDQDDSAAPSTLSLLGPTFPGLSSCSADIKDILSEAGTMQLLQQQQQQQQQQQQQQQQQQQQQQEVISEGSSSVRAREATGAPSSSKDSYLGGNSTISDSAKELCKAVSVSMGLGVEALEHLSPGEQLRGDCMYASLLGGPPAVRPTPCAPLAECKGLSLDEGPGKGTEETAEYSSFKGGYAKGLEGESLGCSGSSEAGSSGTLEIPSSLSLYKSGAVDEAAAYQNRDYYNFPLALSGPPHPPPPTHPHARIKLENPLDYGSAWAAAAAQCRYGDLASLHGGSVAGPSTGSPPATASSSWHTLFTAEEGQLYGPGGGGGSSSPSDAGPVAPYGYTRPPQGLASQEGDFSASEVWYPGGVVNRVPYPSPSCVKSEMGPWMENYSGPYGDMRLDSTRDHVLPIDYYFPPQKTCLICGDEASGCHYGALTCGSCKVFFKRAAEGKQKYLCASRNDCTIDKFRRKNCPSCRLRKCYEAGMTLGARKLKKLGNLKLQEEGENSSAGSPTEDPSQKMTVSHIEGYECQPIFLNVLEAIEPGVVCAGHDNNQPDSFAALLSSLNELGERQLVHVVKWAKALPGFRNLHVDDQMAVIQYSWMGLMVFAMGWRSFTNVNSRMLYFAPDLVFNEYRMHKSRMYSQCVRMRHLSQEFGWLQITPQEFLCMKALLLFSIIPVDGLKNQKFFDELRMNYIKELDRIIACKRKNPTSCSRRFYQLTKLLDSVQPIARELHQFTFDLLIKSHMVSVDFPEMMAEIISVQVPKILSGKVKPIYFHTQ
# [2] = target: T1, Androgen receptor (Rattus norvegicus); experiment: as §1, with “ventral prostate” for “seminal vesicles and coagulating glands”; assay type: functional, organism-based; settings: time 11.0 day
SMILES,Activity [1],Activity [2]
CNC(=O)c1cc2c(cc1F)CC1(C2)C(=O)N(c2ccc(C#N)c(C(F)(F)F)c2)C(=S)N1C(C)C (stereo unspecified),Active,Active
CNC(=O)c1cc2c(cc1F)C[C@@]1(C2)C(=O)N(c2ccc(C#N)c(C(F)(F)F)c2)C(=S)N1C(C)C,inactive,inactive
CNC(=O)c1cc2c(cc1F)C[C@]1(C2)C(=O)N(c2ccc(C#N)c(C(F)(F)F)c2)C(=S)N1C(C)C,Active,Active

# Calls of active or inactive are those of the source. No cut-off for these calls is given here.
